From PubChem BioAssay AID1508624 (National Center for Advancing Translational Sciences (NCATS), 2021)
Only a part is listed here, and it is no random draw. Records with an inconclusive call do not appear. Active and inactive are the calls of the source. The call rests on the fitted dose curve; in most records, active means well fitted activation curve with a large enough effect; inconclusive means small, poorly fitted or top-dose-only effect, or another doubt; inactive means no such curve, though single readings can be large or run the other way.

assay: Primary qHTS for Identification of Small Molecule Activators of Huntingtin-Antisense Promoter Activity; conditions: HEK293 HTT-AS promoter firefly luciferase reporter, 24 h, percent change from vehicle, -100% = no light; at 57.5 µM (top of the series); further: nearly all actives have a fitted effect of over 55% in size
Source text: Assay Provider: Russell L. Margolis M.D.
Department Neurology, Johns Hopkins University School of Medicine, Baltimore, MD
Huntington's Disease (HD) is a neurodegenerative disorder caused by a CAG repeat expansion in exon 1 of huntingtin (HTT). While there are currently no disease-modifying treatments for HD, recent efforts have focused on development of nucleotide-based therapeutics to lower HTT expression. As an alternative to siRNA or oligonucleotide methods, we hypothesized that suppression of HTT expression might be accomplished by small molecules that either (1) directly decrease HTT expression by suppressing HTT promoter activity or (2) indirectly decrease HTT expression by increasing the promoter activity of HTT-AS, the gene antisense to HTT that appears to inhibit expression of HTT.
We developed and employed a high throughput screen for modifiers of HTT and HTT-AS promoter activity using luminescent reporter HEK293 cells; of the 52,041 compounds tested, we identified 898 replicable hits. We used a rigorous stepwise approach to assess compound toxicity and the capacity of the compounds to specifically lower huntingtin protein in 5 different cell lines, including HEK293 cells, HD lymphoblastoid cells, mouse primary neurons, HD iPSCs differentiated into cortical-like neurons, and HD hESCs. We found no compounds which were able to lower huntingtin without lowering cell viability in all assays, though the potential efficacy of a few compounds at non-toxic doses could not be excluded.
SEQUENCE No. (1, 2, 3, etc.); […] (e.g., Cells, Incubation, Reagent, etc.); VALUE and DESCRIPTION.
1; Reagent; 4 uL; 2,500 Hek293 luciferase reporter cells per wells
3; Compound; 23 nL; Control inhibitor / compound library
5; Reagent; 2.5 uL; Firefly Luc reagent; Dual-Glo Luciferase Reporter Assay System (Promega)
6; Time; 10 min; room temperature incubation
7; Detection; Luminescence; FLuc
NOTES (numbers refer to sequence above)
1; High-throughput screening, measuring luminescence from a Hek293 luciferase reporter, was performed in 1,536 well white-walled tissue-culture treated plates. 2,500 cells were plated in 4 µL of Opti-MEM per well using a Multidrop Combi Reagent Dispenser (ThermoFisher).
2; Assay plates were cultured for 24 hours.
3; Control inhibitor (PTC124; final concentration of 50 uM) and compound library (at final concentrations of 460 nM - 57.5 uM) were added to the assay plate using the Kalypsis Pintool Robotic System equipped with 1536 pinheads.
4; Cells were then incubated for 24 hours at 37 degrees C prior to luminescence measurements.
5; In all cases, luminescence was measured using the Dual-Glo Luciferase Reporter Assay System (Promega) following the manufacturer's instructions.
6; Room temperature incubation.
7; Luminescence signal was obtained using the PerkinElmer ViewLux plate reader. Results were normalized to vehicle control (0% activity) and zero RLU (-100% activity).

SMILES	activity change, positive = activation
CN(C)C1(CNC(=O)c2ccc(C(C)(C)C)cc2)CCCCC1	inactive: -5.59%
Cc1ccccc1C(=O)NCC1(N(C)C)CCCCC1	inactive: -5.81%
CC(C)(C)c1ccc(C(=O)NCC2(N3CCOCC3)CCCCC2)cc1	inactive: -24.9%
COc1cc(C(=O)NCC2(N3CCOCC3)CCCCC2)cc(OC)c1OC	inactive: -8.95%
CCC(=O)N(c1ccccc1)C1CCNCC1	inactive: -9.89%
O=C(NCC1(N2CCOCC2)CCCCC1)c1ccccc1[N+](=O)[O-]	inactive: -8.97%
O=C(NCC1(N2CCOCC2)CCCCC1)c1ccc([N+](=O)[O-])cc1	inactive: -8.24%
O=C(NCC1(N2CCOCC2)CCCCC1)c1ccccc1	inactive: -10.9%
CCOc1ccc(C(=O)NCC2(N3CCOCC3)CCCCC2)cc1	inactive: -11.3%
CCCOc1cccc(C(=O)NCC2(N3CCOCC3)CCCCC2)c1	inactive: -24.9%
CCCCOc1ccccc1C(=O)NCC1(N2CCOCC2)CCCCC1	inactive: -28.7%
O=C(NCC1(N2CCOCC2)CCCCC1)c1ccccc1Br	inactive: -15.2%
CCOC(=O)N1CCC(=O)CC1	inactive: -0.145%
COc1ccccc1C(=O)NCC1(N2CCOCC2)CCCCC1	inactive: -3.91%
O=C(NCC1(N2CCOCC2)CCCCC1)c1ccc(Cl)cc1	inactive: -9.26%
CCOC(=O)C(=O)CBr	inactive: -16.8%
